Assay results from US12054498B2, “Heteroaromatic macrocyclic ether chemotherapeutic agents” (Nuvalent, Inc., priority 2020, dated 2024).

Amino acid sequences for entries named in this document (tags omitted). A change or cut given only in a name is not applied to a line headed by its entry. Chains listed by the source or under a name are the forms on record and can include a tag or linker. Residues count along the entry.
UniProt Q9UM73, 1116-1392 limits assumed: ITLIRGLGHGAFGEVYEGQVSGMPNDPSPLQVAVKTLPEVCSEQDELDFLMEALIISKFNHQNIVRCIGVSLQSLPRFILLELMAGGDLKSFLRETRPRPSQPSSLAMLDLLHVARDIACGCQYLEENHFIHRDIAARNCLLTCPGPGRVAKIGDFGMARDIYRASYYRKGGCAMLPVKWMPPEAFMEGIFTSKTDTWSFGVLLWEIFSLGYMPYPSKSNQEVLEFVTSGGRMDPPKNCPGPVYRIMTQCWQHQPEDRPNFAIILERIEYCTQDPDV
UniProt Q9UM73, 1116-1392 L1196M/G1202R limits assumed: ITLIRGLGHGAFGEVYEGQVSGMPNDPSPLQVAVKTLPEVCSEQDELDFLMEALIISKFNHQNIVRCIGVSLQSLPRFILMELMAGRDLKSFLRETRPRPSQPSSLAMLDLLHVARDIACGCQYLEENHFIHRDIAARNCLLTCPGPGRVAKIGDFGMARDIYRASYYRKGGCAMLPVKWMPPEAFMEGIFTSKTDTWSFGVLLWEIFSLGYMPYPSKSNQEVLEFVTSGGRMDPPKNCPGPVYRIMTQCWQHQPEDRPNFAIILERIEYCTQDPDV
UniProt Q9UM73, with tags, fused parts or gaps limits assumed: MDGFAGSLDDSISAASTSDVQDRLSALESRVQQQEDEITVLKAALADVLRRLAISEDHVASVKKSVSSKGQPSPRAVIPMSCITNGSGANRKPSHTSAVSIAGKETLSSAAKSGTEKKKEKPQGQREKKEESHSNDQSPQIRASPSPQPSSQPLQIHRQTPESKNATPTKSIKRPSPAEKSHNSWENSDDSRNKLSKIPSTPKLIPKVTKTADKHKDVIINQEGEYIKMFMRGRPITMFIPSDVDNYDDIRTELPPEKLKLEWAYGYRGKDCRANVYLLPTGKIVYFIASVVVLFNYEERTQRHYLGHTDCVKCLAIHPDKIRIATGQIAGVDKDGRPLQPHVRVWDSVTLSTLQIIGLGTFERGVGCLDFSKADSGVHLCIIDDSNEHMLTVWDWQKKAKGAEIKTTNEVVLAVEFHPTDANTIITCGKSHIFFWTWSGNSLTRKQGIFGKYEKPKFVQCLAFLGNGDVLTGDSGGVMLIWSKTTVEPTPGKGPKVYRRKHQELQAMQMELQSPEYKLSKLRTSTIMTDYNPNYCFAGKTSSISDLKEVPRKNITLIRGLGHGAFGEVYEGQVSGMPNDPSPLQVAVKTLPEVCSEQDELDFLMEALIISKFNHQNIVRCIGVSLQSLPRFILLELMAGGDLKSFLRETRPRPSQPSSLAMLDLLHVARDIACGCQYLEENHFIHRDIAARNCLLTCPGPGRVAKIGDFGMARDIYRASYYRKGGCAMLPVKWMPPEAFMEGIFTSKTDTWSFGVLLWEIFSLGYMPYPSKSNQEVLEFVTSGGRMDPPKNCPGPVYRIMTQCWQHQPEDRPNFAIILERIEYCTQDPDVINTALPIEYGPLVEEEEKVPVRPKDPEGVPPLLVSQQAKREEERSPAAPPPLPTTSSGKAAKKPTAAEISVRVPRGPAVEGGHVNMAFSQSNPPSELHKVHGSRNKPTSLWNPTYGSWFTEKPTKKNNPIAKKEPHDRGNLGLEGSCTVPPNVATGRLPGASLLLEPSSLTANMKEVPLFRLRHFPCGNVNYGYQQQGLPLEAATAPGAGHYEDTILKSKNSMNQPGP
UniProt Q9UM73, with tags, fused parts or gaps G1202R/L1196M limits assumed: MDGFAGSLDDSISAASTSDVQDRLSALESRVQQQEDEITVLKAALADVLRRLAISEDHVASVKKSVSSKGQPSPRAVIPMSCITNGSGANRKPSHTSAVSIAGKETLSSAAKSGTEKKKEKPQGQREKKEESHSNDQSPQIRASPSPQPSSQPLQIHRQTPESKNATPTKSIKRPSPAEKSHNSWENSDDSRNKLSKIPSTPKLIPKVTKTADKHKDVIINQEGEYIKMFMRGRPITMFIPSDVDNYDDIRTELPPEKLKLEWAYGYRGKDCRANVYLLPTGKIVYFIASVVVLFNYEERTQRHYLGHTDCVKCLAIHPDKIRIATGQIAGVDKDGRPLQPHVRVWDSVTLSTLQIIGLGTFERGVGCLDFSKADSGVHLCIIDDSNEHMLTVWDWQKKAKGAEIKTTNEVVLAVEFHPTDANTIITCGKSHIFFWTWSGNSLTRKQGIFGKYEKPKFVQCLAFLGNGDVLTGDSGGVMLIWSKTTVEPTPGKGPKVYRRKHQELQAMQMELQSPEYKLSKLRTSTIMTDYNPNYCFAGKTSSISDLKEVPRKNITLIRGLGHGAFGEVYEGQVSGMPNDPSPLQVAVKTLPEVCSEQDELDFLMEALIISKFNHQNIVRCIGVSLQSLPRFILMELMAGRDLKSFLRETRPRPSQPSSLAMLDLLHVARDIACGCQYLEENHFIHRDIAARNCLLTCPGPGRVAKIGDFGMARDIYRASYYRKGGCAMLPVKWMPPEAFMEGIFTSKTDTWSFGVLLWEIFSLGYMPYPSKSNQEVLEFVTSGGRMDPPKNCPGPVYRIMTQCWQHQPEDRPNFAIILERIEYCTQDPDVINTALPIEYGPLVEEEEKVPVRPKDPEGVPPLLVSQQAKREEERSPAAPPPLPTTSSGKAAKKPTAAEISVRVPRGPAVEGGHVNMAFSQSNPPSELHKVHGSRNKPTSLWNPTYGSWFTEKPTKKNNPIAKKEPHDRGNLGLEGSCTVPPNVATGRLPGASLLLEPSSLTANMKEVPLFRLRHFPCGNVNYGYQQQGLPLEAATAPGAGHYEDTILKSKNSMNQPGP
UniProt P08922, 1883-2347 limits assumed: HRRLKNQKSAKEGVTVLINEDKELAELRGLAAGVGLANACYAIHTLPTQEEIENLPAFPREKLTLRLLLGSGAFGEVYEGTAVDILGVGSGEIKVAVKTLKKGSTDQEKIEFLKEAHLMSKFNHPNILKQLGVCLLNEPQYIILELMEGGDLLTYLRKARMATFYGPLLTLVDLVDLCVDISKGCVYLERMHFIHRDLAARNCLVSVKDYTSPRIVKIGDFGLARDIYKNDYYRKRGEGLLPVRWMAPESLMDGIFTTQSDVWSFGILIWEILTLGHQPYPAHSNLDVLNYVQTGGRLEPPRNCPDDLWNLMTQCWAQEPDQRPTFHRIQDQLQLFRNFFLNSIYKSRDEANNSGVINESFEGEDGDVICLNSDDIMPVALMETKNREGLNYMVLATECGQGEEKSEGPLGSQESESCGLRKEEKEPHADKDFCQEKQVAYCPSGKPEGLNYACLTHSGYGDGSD
UniProt P08922, 1945-2222 limits assumed: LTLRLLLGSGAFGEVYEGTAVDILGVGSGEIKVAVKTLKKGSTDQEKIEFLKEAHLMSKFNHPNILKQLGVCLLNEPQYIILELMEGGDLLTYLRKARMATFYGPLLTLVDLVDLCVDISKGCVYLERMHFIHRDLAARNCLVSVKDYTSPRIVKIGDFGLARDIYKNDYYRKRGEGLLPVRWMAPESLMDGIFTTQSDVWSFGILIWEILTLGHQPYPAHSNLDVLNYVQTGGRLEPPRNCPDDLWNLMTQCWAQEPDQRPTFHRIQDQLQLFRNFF
UniProt P08922, 1883-2347 G2032R limits assumed: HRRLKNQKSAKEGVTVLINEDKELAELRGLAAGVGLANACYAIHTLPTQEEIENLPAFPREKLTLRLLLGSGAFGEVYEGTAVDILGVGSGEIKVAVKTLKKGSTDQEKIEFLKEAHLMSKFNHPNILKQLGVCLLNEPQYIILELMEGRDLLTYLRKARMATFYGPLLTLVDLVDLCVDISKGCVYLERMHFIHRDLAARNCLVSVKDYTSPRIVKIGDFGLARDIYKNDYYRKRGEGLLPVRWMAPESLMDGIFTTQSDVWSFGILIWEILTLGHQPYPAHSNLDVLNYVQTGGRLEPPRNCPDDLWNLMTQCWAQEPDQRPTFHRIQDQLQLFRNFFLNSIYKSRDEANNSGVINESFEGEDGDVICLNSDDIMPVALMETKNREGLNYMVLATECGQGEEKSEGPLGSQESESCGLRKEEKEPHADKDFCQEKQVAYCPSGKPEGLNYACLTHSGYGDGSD
UniProt P08922, 1945-2222 G2032R limits assumed: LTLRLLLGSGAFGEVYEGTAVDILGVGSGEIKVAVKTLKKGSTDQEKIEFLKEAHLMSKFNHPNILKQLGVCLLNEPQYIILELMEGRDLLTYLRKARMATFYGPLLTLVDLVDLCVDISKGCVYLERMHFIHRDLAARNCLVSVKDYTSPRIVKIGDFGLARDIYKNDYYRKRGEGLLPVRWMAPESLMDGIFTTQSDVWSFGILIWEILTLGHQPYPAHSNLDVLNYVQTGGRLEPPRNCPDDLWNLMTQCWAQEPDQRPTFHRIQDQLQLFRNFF
UniProt P04629, 510-781 limits assumed: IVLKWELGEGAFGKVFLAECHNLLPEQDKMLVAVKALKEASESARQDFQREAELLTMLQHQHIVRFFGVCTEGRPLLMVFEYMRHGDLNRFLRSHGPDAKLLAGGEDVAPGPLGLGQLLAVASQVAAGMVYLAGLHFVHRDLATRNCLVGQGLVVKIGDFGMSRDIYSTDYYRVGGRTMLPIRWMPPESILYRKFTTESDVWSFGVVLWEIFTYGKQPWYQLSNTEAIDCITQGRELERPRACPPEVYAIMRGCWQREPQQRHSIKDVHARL
UniProt P04629, 510-796 limits assumed: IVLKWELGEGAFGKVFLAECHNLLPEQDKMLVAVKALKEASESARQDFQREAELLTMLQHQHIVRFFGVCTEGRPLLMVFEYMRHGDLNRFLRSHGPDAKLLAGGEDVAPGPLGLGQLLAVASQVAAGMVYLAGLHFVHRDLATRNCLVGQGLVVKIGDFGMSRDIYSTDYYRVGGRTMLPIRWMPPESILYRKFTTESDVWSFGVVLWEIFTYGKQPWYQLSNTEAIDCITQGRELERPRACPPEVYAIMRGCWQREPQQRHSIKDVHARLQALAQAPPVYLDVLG

What was measured:
ALK-wt = ALK-wt (Homo sapiens, UniProt Q9UM73); assay: Biochemical kinase assay, ALK-wt kinase domain; conditions: read-out: ALK-wt Ki^app; apparent inhibitory constant, Morrison equation; ATP 2 mM in substrate solution
ALK L1196M/G1202R = ALK L1196M/G1202R (Homo sapiens, UniProt Q9UM73, G1202R/L1196M); assay: Biochemical kinase assay, ALK L1196M/G1202R kinase domain; conditions: read-out: ALK-L1196M-G1202R Ki^app; apparent inhibitory constant, Morrison equation; ATP 2 mM in substrate solution
ROS1-wt = ROS1-wt (Homo sapiens, UniProt P08922); assay: Biochemical kinase assay, ROS1-wt kinase domain; conditions: read-out: ROS1-wt Ki^app; apparent inhibitory constant, Morrison equation; ATP 2 mM in substrate solution
ROS1-G2032R = ROS1-G2032R (Homo sapiens, UniProt P08922, G2032R); assay: Biochemical kinase assay, ROS1-G2032R kinase domain; conditions: read-out: ROS1-G2032R Ki^app; apparent inhibitory constant, Morrison equation; ATP 2 mM in substrate solution
TRKA-wt = TRKA-wt (Homo sapiens, UniProt P04629); assay: Biochemical kinase assay, TRKA-wt kinase domain; conditions: read-out: TRKA-wt Ki^app; apparent inhibitory constant, Morrison equation; ATP 2 mM in substrate solution
[1] = target: Ba/F3 cells CD74-ROS1 wild-type (wt) (Homo sapiens, UniProt P08922); assay: Ba/F3 cell proliferation assay, CD74-ROS1 wild-type; format: cell-based; conditions: read-out: CD74-ROS1-wt IC50, 72 hours, CellTiter-Glo
[2] = target: Ba/F3 cells CD74-ROS1 G2032R (Homo sapiens, UniProt P08922, G2032R); assay: Ba/F3 cell proliferation assay, CD74-ROS1 G2032R; format: cell-based; conditions: read-out: CD74-ROS1-G2032R IC50, 72 hours, CellTiter-Glo
[3] = target: Ba/F3 cells EML4-ALK wt (variant 1) (Homo sapiens, UniProt Q9UM73); assay: Ba/F3 cell proliferation assay, EML4-ALK wt (variant 1); conditions: read-out: EML4-ALK-wt IC50, 72 hours, CellTiter-Glo
[4] = target: Ba/F3 cells EML4-ALK L1196M/G1202R (variant 1) (Homo sapiens, UniProt Q9UM73, G1202R/L1196M); assay: Ba/F3 cell proliferation assay, EML4-ALK L1196M/G1202R (variant 1); conditions: read-out: EML4-ALK-L1196M-G1202R IC50, 72 hours, CellTiter-Glo
Ba/F3 cells TPM3-TRKA = Ba/F3 cells TPM3-TRKA (Homo sapiens, UniProt P04629); assay: Ba/F3 cell proliferation assay, TPM3-TRKA; conditions: read-out: TPM3-NTRK1-wt IC50, 72 hours, CellTiter-Glo
[5] = tested on: TPM3-NTRK1-wt IC50 / primary target IC50 (e.g. CD74-ROS1-wt); assay: TRKA selectivity in Ba/F3 cells (TRKA potency divided by primary target potency)

- Ki (ALK-wt): < 50 nM
- Ki (ALK L1196M/G1202R): < 50 nM
- Ki (ROS1-wt): < 50 nM
- Ki (ROS1-G2032R): < 50 nM
- Ki (TRKA-wt): < 50 nM
- IC50 [1]: 0.1 to 50 nM
- IC50 [2]: 0.1 to 50 nM
- IC50 [3]: 0.1 to 50 nM
- IC50 [4]: 50 to 500 nM
- IC50 (Ba/F3 cells TPM3-TRKA): 50 to 500 nM
SMILES: CCn1ncc2c1-c1cnc(N)c(c1)O[C@H](C)c1cc(F)ccc1-c1cc(C(F)(F)F)nn1C2
- TPM3-NTRK1-wt/CD74-ROS1-G2032R selectivity ratio ([5]; TRKA potency / CD74-ROS1-G2032R potency): A (bin A for very high selectivity, ratio >30-fold)
- TPM3-NTRK1-wt/CD74-ROS1-wt selectivity ratio ([5]; TRKA potency / CD74-ROS1-wt potency): A (bin A for very high selectivity, ratio >30-fold)
- TPM3-NTRK1-wt/EML4-ALK-L1196M-G1202R selectivity ratio ([5]; TRKA potency / EML4-ALK-L1196M-G1202R potency): D (bin D for low selectivity, ratio <1)
- TPM3-NTRK1-wt/EML4-ALK-wt selectivity ratio ([5]; TRKA potency / EML4-ALK-wt potency): C (bin C for moderate selectivity, ratio ≥1)
